# Measurements taken from PubChem BioAssay (NCATS).
# Protein sequences, listed by entry. Tags and fused reporters are not part of them.
# UniProt P08659, whole entry: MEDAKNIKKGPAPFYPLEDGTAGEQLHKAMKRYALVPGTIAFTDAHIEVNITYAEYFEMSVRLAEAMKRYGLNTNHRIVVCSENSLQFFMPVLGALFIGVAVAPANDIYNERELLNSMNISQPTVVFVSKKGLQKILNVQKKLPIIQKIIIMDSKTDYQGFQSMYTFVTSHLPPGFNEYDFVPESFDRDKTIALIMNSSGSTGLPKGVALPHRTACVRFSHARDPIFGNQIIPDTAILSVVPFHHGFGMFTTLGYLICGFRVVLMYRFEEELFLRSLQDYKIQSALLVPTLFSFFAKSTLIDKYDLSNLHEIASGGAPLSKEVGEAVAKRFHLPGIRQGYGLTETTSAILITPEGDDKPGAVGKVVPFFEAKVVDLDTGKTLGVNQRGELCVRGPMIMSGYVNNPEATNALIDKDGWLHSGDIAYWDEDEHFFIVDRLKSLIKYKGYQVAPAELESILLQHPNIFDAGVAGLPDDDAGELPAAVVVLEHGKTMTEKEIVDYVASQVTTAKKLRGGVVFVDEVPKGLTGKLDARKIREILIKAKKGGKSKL
# Only a part is listed here, and it is no random draw. Results filed as inconclusive are left out. Calls of active or inactive are those of the source. The call rests on the fitted dose curve; in most records, active means well fitted inhibition curve with a large enough effect; inconclusive means small, poorly fitted or top-dose-only effect; inactive means flat fitted curve, though single readings scatter.
# Molecular target: Luciferin 4-monooxygenase (Photinus pyralis) (UniProt P08659)
# Experiment: Biochemical firefly luciferase enzyme assay for NPC (AID 624030);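 further: purified P. pyralis luciferase at 10 nM with luciferin and ATP substrate; 0% = DMSO and -100% = full luciferase inhibition by PTC124 control; nearly all actives have a fitted effect of over 70% in size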
# Settings: purified P. pyralis luciferase, luminescence, 5 min; at 123 µM (top of the series) unless noted
# From the text: Charcot-Marie-Tooth-Association [CMTA] National Center for Advancing Translational Sciences [NCATS] Charcot-Marie-Tooth (CMT) disease was first characterized by Jean-Martin Charcot and Pierre Marie in France and, independently, by Howard Henry Tooth in England in 1886. CMT is one of the most common inherited neurological diseases, affecting approximately 1 in 2,500 Americans. […] The most prevalent type of CMT is known as CMT1A and caused by a duplication of the PMP22 gene which leads to over-expression of this protein. PMP22 is a glycosylated intrinsic membrane protein accounting for 2-5% of the myelin protein content, and its over-expression results in demyelination and subsequently axonal loss. A pair of cellular transcription-based assays was developed in the S16 rat Schwann cell lines (Hai, M., et al., 2002) stably transfected with orthogonal reporters - firefly luciferase (Fluc) and beta-lactamase (beta-Lac) - whose expression is driven by an intronic regulatory element of the PMP22 gene (Jones, E.A., et al., 2011) to recapitulate endogenous expression of PMP22. A comprehensive library of approved drugs, the NCGC Pharmaceutical Collection (Huang, R., et al., 2011), was screened in the cross-validating platform of the orthogonal reporter assays to identify drug modulators inhibitory towards PMP22 expression. A set of counter-screens was devised to address non-specific activity of the library. […]
# Compounds were transferred to the plates in 23nl, and one microliter/well luciferase enzyme-buffer solution (10 nM P. pyralis luciferase and 50 mM Tris Acetate final concentrations) was dispensed yielding a final reaction volume of […]. Luciferase luminescence was measured by a ViewLux plate reader within 5 minutes of enzyme-buffer addition. The % activity was determined by normalizing to the average readings of PTC124 (a positive control) relative to DMSO (0% Activity). The concentration-effect curves were then classified based on curve quality (r2), response magnitude and degree of measured activity.
row,SMILES,"activity change, negative = inhibition"
1,CN(CCCl)CCCl,inactive: 0.472% [at 58.6 µM]
2,CCC(=O)N(c1ccccc1)C1(COC)CCN(CCc2cccs2)CC1,inactive: -15.5%
3,CCC(=O)N(c1ccccc1)C1(COC)CCN(CCn2nnn(CC)c2=O)CC1,inactive: -2.05%
